Laboratory results as given in paper PMC9619402 (Journal of Medicinal Chemistry, 2022).

The chains behind the UniProt entries cited, without tags or fusion partners. Residues count along the entry.
UniProt P53671, 326-638 limits assumed: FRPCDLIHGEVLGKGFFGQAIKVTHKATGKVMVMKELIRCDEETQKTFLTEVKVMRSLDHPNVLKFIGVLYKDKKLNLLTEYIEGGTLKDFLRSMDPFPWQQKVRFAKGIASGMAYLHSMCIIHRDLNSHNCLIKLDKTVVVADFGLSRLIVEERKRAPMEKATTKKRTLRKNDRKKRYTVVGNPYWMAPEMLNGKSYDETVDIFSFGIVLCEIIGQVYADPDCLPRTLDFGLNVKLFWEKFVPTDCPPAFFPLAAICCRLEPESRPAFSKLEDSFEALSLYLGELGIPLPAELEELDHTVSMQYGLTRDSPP
UniProt P53667, 330-637: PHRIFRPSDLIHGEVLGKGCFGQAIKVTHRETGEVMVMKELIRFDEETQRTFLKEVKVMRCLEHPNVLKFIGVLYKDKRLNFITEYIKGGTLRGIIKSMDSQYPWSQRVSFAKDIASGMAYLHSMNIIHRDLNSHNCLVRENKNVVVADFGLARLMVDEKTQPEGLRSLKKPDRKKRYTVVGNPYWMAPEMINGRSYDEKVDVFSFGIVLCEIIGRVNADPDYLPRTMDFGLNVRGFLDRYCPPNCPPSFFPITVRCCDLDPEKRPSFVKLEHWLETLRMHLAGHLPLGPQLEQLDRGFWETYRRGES

What was measured:
[1] = molecular target: PAK pLIMK2 (PAK-phosphorylated LIMK2) (Homo sapiens, UniProt P53671); conditions: 6 nM LIMK2 + 0.2 nM PAK1 kinase domain; mean ± SEM
[2] = molecular target: LIMK1 (LIMK1_330–637, kinase catalytic domain) (Homo sapiens, UniProt P53667); conditions: 40 nM LIMK1 catalytic domain, 4 μM CFL1, 2 mM ATP; mean ± SEM, at least three experiments unless footnoted; pIC50 greater than 7.7 treat with caution
[3] = test system: p-cofilin levels in SH-SY5Y cells; experiment: cells; conditions: Homo sapiens, 2 h, read-out: AlphaLISA pIC50 p-cofilin (converted)
Experimental: SH-SY5Y cells were plated into a 96-well plate at 20,000 cells/well. The next day, compounds were prepared in an 8-point, 3-fold serial dilution in DMSO and then further diluted to 20-fold in DMEM/F12 with 10% FBS, 1% antibiotics. SH-SY5Y cell media was replaced with fresh DMEM/F12 media containing 10% FBS and 1% antibiotics. Compounds were added to the SH-SY5Y cells in duplicate at a final compound concentration of 10 μM to 3 nM. LIMKi3 (10 μM) was used as a positive control and 0.5% DMSO was used as a negative control. Cells were placed in the incubator for 2 h, after which the media was removed, and the cells were lysed using 50 μL of AlphaLISA 1× lysis buffer (Perkin Elmer) containing protease inhibitor cocktail (Sigma-Aldrich, Dorset, U.K.) and Pierce phosphatase inhibitor cocktail (Thermofisher, U.K.). Cells were placed on a plate shaker at 350 rpm at RT. Ten microliters of total cell lysate was then transferred to a clean, flat-bottom, white 384-well plate. An acceptor bead solution was made consisting of reaction buffer 1, reaction buffer 2, activation buffer, and acceptor beads from the p-Cofilin SureFire Ultra assay kit (Perkin Elmer, Cat# ALSU-PCOF-A500). […] Finally, the plate was read on a Pherastar reader (BMG Labtech Ltd., Aylesbury, U.K.) using an AlphaLISA cartridge and AlphaLISA plate settings.

[4] = molecular target: PAK pLIMK1 (PAK-phosphorylated LIMK1) (Homo sapiens, UniProt P53667); experiment: RapidFire mass spectrometry kinase assay, PAK-phosphorylated LIMK1; conditions: 5 nM LIMK1 + 0.4 nM PAK1 kinase domain; mean ± SEM
[5] = molecular target: LIMK2 (LIMK2_347–659, kinase catalytic domain) (Homo sapiens, UniProt P53671); conditions: 15 nM LIMK2 catalytic domain, 4 μM CFL1, 2 mM ATP; mean ± SEM; pIC50 greater than 8.1 treat with caution
[6] = molecular target: T1, LIMK2 (NanoLuc LIMK2 kinase fusion) (Homo sapiens, UniProt P53671); type: cell-based; conditions: HEK293 cells, 2 h; mean ± SEM
T1 construct: host or cells: HEK293
Experimental: (§1) HEK293 cells were resuspended in growth media following routine trypsinization, neutralization, and sedimentation techniques. Cell density was adjusted to 1 ×10^5 cells/mL for each transfection in a total of 25 mL media. The transfection mix was added directly to the cells and mixed gently by inversion. The cells were then plated into T-75 tissue culture flasks and incubated for 20 h.
(§2) Kit components were purchased from Promega (Hampshire, U.K.). […] NanoBRET Tracer #10 (27.5 μL) was diluted in 192.5 μL of DMSO for use as a positive control, which was further diluted with 880 μL of tracer dilution buffer. For negative control, 20 μL of DMSO was added to 80 μL of tracer dilution buffer. LIMK1/2-transfected HEK293 cells were trypsinized, centrifuged, and resuspended in 10 mL of Opti-MEM. Extracellular NanoLuc inhibitor was added at 1:10,000 dilution to the cells, after which 85 μL of cells/well were plated into flat-bottomed, white, 96-well plates. For positive control wells, 5 μL of NanoBRET Tracer #10 was added to wells without compound. For negative controls, the DMSO/tracer dilution buffer solution was added to wells without compound. For test compounds, 10 μL of diluted compounds from the intermediate plate were added in duplicate or DMSO (for control wells) at a final concentration of 0.5% DMSO in Opti-MEM. Plates were incubated at 37 °C and 5% CO2 for 2 h. […]

[7] = molecular target: T2, LIMK1 (NanoLuc LIMK1 kinase fusion) (Homo sapiens, UniProt P53667); type: cell-based; conditions: HEK293 cells, 2 h; mean ± SEM
T2 construct: host or cells: HEK293
Experimental: as §1, §2

[8] = test system: 468 kinases (scanMax panel); experiment: Eurofins/DiscoverX scanMax panel (KINOMEscan) kinome profile; type: binding; conditions: 1000 nM, fraction of kinases bound >50%

Row | SMILES | RapidFire pIC50 PAK pLIMK2 [1] | RapidFire pIC50 LIMK1 [2] | IC50 [3] | RapidFire pIC50 PAK pLIMK1 [4] | RapidFire pIC50 LIMK2 [5] | NanoBRET pIC50 LIMK2 [6] | NanoBRET pIC50 LIMK1 [7] | kinome S50 [8]
1 | Nc1nc(NCCNc2ncc(-n3ccnc3)c(-c3ccc(Cl)cc3Cl)n2)ccc1[N+](=O)[O-] [Compound 14] | <5 | <5 | > 10 µM | <5 | <5 | <5 | <5 | 
2 | Cc1c[nH]c2ncnc(-c3ccc(NC(=O)N(CCO)c4ccccc4)cc3)c12 [Compound 8] | <5 |  | 0.468 µM |  | 5.72 ± 0.27 |  |  | 0.07 (468, 1000 nM)
